# Laboratory results reported in the supplement of paper PMC10307832.
# Compound: CN1CCN(CCOc2cc(OC3CCOCC3)c3c(Nc4c(Cl)ccc5c4OCO5)ncnc3c2)CC1 [Saracatinib] + N=C(N)NC(=N)NCCc1ccccc1 [Phenformin] (partner 250 µM)
# Experiment: relative viability (nuclei count vs DMSO), 5 days (fraction); higher = more cells survive
# Details: first compound 0.02 µM
# Summary of the method: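 The day after seeding in 1536-well plates, lung cancer cell lines were treated by pin tool with a single drug, or with a fixed anchor-drug dose together with five library-drug doses (not always all listed) in √10 steps. After 5 days, a combined fix-and-stain solution (final 0.05% Triton X-100, 1% formaldehyde, 1 ug/ml Hoechst) was added. Nuclei counted on 4× images gave relative viability as treated counts over vehicle counts, reported as the median of duplicate plates.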
cell line,measurement,value
NCI-H2085,relative viability,0.792
